# Laboratory results taken from patent US20250243245A1 (priority 2022, published 2025).
# Where a SMILES comes first, the peptide text is derived from it.
# How the values were obtained:
# E. coli BL21 = conditions: BL21, 24 h
# E. coli strain BL21 = conditions: 5×10^5 cfu, 24 hours incubation; MIC range above which no bacterial growth
SMILES,IC99% (~MIC) (E. coli BL21) [µM],MIC (E. coli strain BL21) [µM]
CC[C@H](C)[C@H](NC(=O)[C@H](CCC(=O)O)NC(=O)[C@H](CC(C)C)NC(=O)[C@@H](NC(=O)[C@H](CCCCN)NC(=O)[C@H](CCC(=O)O)NC(=O)[C@@H]1CCCN1C(=O)[C@H](CC(C)C)NC(=O)[C@H](CCCCN)NC(=O)[C@@H](N)CCCCN)[C@@H](C)CC)C(=O)N[C@@H](CC(C)C)C(=O)NCC(=O)N[C@@H](CO)C(=O)NCC(=O)N[C@@H](Cc1ccc(O)cc1)C(=O)N[C@@H](CCCCN)C(=O)N[C@@H](CCCCN)C(=O)N[C@@H](CC(C)C)C(=O)N1CCC[C@H]1C(=O)N[C@@H](Cc1ccccc1)C(=O)N[C@@H](Cc1c[nH]c2ccccc12)C(=O)N[C@@H](CCC(N)=O)C(=O)N[C@@H](CCCNC(=N)N)C(=O)N[C@@H](CCCNC(=N)N)C(=O)N[C@H](C(=O)N[C@@H](CCCNC(=N)N)C(=O)N[C@@H](CCCNC(=N)N)C(=O)N[C@@H](Cc1c[nH]c2ccccc12)C(=O)N[C@@H](CCCNC(=N)N)C(=O)N[C@@H](CCCNC(=N)N)C(=O)O)[C@@H](C)CC [Gen-2] (H-KKLPEKILEILGSGYKKLPFWQRRIRRWRR-OH; N-terminus and C-terminus assumed),4.48 ± 0.22,–
CC[C@H](C)[C@H](NC(=O)[C@H](CCCCN)NC(=O)[C@H](CC(C)C)NC(=O)[C@@H](NC(=O)[C@H](CCCCN)NC(=O)[C@H](CCCCN)NC(=O)[C@@H]1CCCN1C(=O)[C@H](CC(C)C)NC(=O)[C@H](CCCCN)NC(=O)[C@@H](N)CCCCN)[C@@H](C)CC)C(=O)N[C@@H](CC(C)C)C(=O)NCC(=O)N[C@@H](CO)C(=O)NCC(=O)N[C@@H](Cc1ccc(O)cc1)C(=O)NCC(=O)N[C@@H](CO)C(=O)N1CCC[C@H]1C(=O)NCC(=O)N[C@@H](Cc1ccccc1)C(=O)N[C@@H](Cc1c[nH]c2ccccc12)C(=O)N[C@@H](CCC(N)=O)C(=O)N[C@@H](CCCNC(=N)N)C(=O)N[C@@H](CCCNC(=N)N)C(=O)N[C@H](C(=O)N[C@@H](CCCNC(=N)N)C(=O)N[C@@H](CCCNC(=N)N)C(=O)N[C@@H](Cc1c[nH]c2ccccc12)C(=O)N[C@@H](CCCNC(=N)N)C(=O)N[C@@H](CCCNC(=N)N)C(=O)O)[C@@H](C)CC [Peptide 30P-3],2.41 ± 0.11,–
"CC(C)C[C@@H]1NC(=O)[C@H](CCCNC(=N)N)NC(=O)[C@H](CCCNC(=N)N)NC(=O)[C@@H](NC(=O)[C@@H](N)CCCCN)CSSC[C@@H](C(=O)N[C@@H](CCCNC(=N)N)C(=O)NCC(=O)N[C@@H](CCCNC(=N)N)C(=O)N[C@@H](CCC(N)=O)C(=O)O)NC(=O)[C@H](Cc2ccc(O)cc2)NC(=O)[C@H]([C@@H](C)O)NC(=O)[C@H](C(C)C)NC(=O)[C@@H]2CSSC[C@H](NC1=O)C(=O)N[C@@H](Cc1ccc(O)cc1)C(=O)N[C@@H](CCCCN)C(=O)N[C@@H](CCC(N)=O)C(=O)N[C@@H](CCCNC(=N)N)C(=O)N2 [Peptide L19GA, KC2RRLC6YKQRC11VTYC15RGRQ]",–,1250 to 2500
CC[C@H](C)[C@H](NC(=O)[C@H](CCCNC(=N)N)NC(=O)[C@H](CCCNC(=N)N)NC(=O)[C@H](CCC(N)=O)NC(=O)[C@H](Cc1c[nH]c2ccccc12)NC(=O)[C@H](Cc1ccccc1)NC(=O)CNC(=O)[C@@H]1CCCN1C(=O)[C@H](CO)NC(=O)CNC(=O)[C@H](Cc1ccc(O)cc1)NC(=O)CNC(=O)[C@H](CO)NC(=O)[C@H](CCC(=O)O)NC(=O)[C@H](CC(C)C)NC(=O)[C@@H](NC(=O)[C@H](CCCCN)NC(=O)[C@H](CC(C)C)NC(=O)[C@@H](NC(=O)[C@H](CCCCN)NC(=O)[C@H](CCC(=O)O)NC(=O)[C@@H]1CCCN1C(=O)[C@H](CC(C)C)NC(=O)[C@H](CCCCN)NC(=O)[C@@H](N)CCCCN)[C@@H](C)CC)[C@@H](C)CC)C(=O)N[C@@H](CCCNC(=N)N)C(=O)N[C@@H](CCCNC(=N)N)C(=O)N[C@@H](Cc1c[nH]c2ccccc12)C(=O)N[C@@H](CCCNC(=N)N)C(=O)N[C@@H](CCCNC(=N)N)C(=O)O [UGK-13] (H-KKLPEKILKILESGYGSPGFWQRRIRRWRR-OH),1.40 ± 0.03,–
CC[C@H](C)[C@H](NC(=O)[C@H](CCCNC(=N)N)NC(=O)[C@H](CCCNC(=N)N)NC(=O)[C@H](CCC(N)=O)NC(=O)[C@H](Cc1c[nH]c2ccccc12)NC(=O)[C@H](Cc1ccccc1)NC(=O)CNC(=O)[C@@H]1CCCN1C(=O)[C@H](CO)NC(=O)CNC(=O)[C@H](CCCCN)NC(=O)[C@H](CC(C)C)NC(=O)[C@H](CO)NC(=O)[C@H](CCC(=O)O)NC(=O)[C@H](CC(C)C)NC(=O)[C@@H](NC(=O)[C@H](CCCCN)NC(=O)[C@H](CC(C)C)NC(=O)[C@@H](NC(=O)[C@H](CCCCN)NC(=O)[C@H](CCC(=O)O)NC(=O)[C@@H]1CCCN1C(=O)[C@H](CC(C)C)NC(=O)[C@H](CCCCN)NC(=O)[C@@H](N)CCCCN)[C@@H](C)CC)[C@@H](C)CC)C(=O)N[C@@H](CCCNC(=N)N)C(=O)N[C@@H](CCCNC(=N)N)C(=O)N[C@@H](Cc1c[nH]c2ccccc12)C(=O)N[C@@H](CCCNC(=N)N)C(=O)N[C@@H](CCCNC(=N)N)C(=O)O [UGK-17] (H-KKLPEKILKILESLKGSPGFWQRRIRRWRR-OH),1.97 ± 0.06,–
